miR-21 reporter – miR-21 reporter, rising signal | HeLa miR-21 FLuc reporter, luciferase, 48 h | Potency, µM (top dose mostly 38.3 µM) | 340,000 tested, under 10 active | AID 2288; active = well fitted rising curve with a large enough effect; inconclusive = small, poorly fitted or top-dose-only effect; inactive = no such curve, though single readings can be large or run the other way;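 note: miR-21 action dims this reporter so a rising signal means less miR-21 action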
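Using DMEM plus 10% FBS, HeLa miR-21-FLuc cells are incubated with test compounds (final up to about 40uM) for 48 hours; firefly luciferase signal is then imaged following reagent-mediated lysis.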
ALDH1A1 block – inhibitors of human aldehyde dehydrogenase 1A1; P00352; Purified ALDH1A1, NADH fluorescence, propionaldehyde substrate; Potency, µM (titrated, usually from 75.3 µM), actives largely listed as inhibitors; hit rate 7.3% among 220,000; AID 1030; active = well fitted inhibition curve with a large enough effect, not every such curve was filed as active; inconclusive = small, poorly fitted or top-dose-only effect, or another doubt; inactive = no such curve, though single readings can be large or run the other way
Sfp inh – blocks B. subtilis Sfp PPTase activity. AID 1490. Q9F4F7. hit rate 3.5% among 310,000. Biochemical Sfp PPTase activity, qHTS. Potency, µM, hits mostly inhibitors;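 also: the enzyme is Sfp with the accession as filed and its product quenches rhodamine fluorescence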
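After 15 min at room temperature with compound, 15 nM Sfp received 5 uM rhodamine-CoA plus 12.5 uM BHQ-2-ybbR (50 mM Hepes pH 7.6, 10 mM MgCl2). Rate came from the fluorescence difference over 30 min, ex 525/em 598 nm.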
KDM4E inh – inhibitors of human JMJD2E histone demethylase; B2RXH2; JMJD2E catalytic domain, FDH-coupled NADH fluorescence (FDH is formaldehyde dehydrogenase); Potency, µM (highest dose often 57.1 µM), most hits filed as inhibitors; hit rate 1.6% among 230,000; AID 2147; active = well fitted inhibition curve with a large enough effect, not every such curve was filed as active; inconclusive = small, poorly fitted or top-dose-only effect, or another doubt; inactive = no such curve, though single readings can be large or run the other way; also: nearly all actives have a fitted effect of over 50% in size
G9a inh – G9a (human) methyltransferase inhibition | Potency, µM (series often up to 102 µM), most hits filed as inhibitors | hit rate 8.8% among 350,000 | G9a H3K9 monomethylation, AlphaScreen, 2 h; also: nearly all actives have a fitted effect of over 75% in size
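Compounds were preincubated with 20 nM G9a for 15 min, after which biotinylated H3K9 peptide (500 nM) and SAM (20 uM) started a 2 h room-temperature reaction. Monomethylated product was quantified by antibody-based AlphaScreen chemiluminescence.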
Lamin A splicing – LMNA splicing modulation | HeLa LMNA splicing GFP/RFP minigene ratio, 48 h | Potency, µM (top dose mostly 46.1 µM), usual class: inhibitors | hit rate 0.01% among 200,000; active = well fitted inhibition curve with a large enough effect in the signal ratio, with a control signal flat, not every such curve was filed as active; inconclusive = small, poorly fitted or top-dose-only effect, or effect the other way, or a change in a side signal; the % refers to the signal ratio
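S3 HeLa cells stably expressing lamin A-EGFP splicing minigene plus DsRed2, 600 cells/well, 48 h compound exposure at 37C. Laser-scanning cytometry; analysed as GFP (500-530 nm)/RFP (575-640 nm) total intensity ratio; 0.5% DMSO vehicle.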
Numbers stand for hits; . = inactive; ? = inconclusive; / = no result; [ ] = another dose, or the depositor's remark. Sampled rows, rich in hits. Any-hit rate of the full collection: about 13%. Unless noted, calls follow the shape of the dose curve; as a rule, active = well fitted curve in the direction sought with a large enough effect; inconclusive = small, poorly fitted or top-dose-only effect, or another doubt; inactive = no such curve, though single readings can be large; an effect the other way counts as inactive or inconclusive.

SMILES	miR-21 reporter	ALDH1A1 block	Sfp inh	KDM4E inh	G9a inh	Lamin A splicing
O=C(CCN1C(=O)/C(=C/c2cccs2)SC1=S)Nc1cccc(C(=O)O)c1	.	/	.	/	50.1µM	/
O=C(CN1C(=O)/C(=C/c2ccc(Cl)cc2)SC1=S)NC1C=CS(=O)(=O)C1 (stereo not drawn)	.	/	39.8µM	/	.	/
CC(/C=C1\SC(=S)N(CCCC(=O)Nc2ccc(C(=O)O)c(O)c2)C1=O)=C\c1ccccc1	.	6.31µM	?	.	?	.
O=C(CCN1C(=O)/C(=C/c2ccc(Cl)cc2)SC1=S)NC1C=CS(=O)(=O)C1 (stereo not drawn)	.	/	.	/	.	/
CC(/C=C1\SC(=S)N(CCC(=O)Nc2ccc(O)cc2)C1=O)=C\c1ccccc1	.	/	.	/	.	/
Cn1nc(NC(=O)CC23CC4CC(CC(C4)C2)C3)c2c(F)cccc21	.	/	?	.	.	/
O=[N+]([O-])c1ccc(NCc2ccccc2N2CCC(CO)CC2)nc1	.	/	.	/	.	/
O=C(CCN1C(=O)/C(=C/c2cccs2)SC1=S)Nc1cccc(O)c1	.	/	.	/	.	/
O=C(CCN1C(=O)/C(=C/c2ccc(Cl)cc2)SC1=S)Nc1cccc(C(=O)O)c1	.	/	.	/	44.7µM	/
COc1ccc(/C=C2\SC(=S)N(CCC(=O)Nc3cccc(C(=O)O)c3)C2=O)cc1	.	/	.	/	/	/
O=C(CCCN1C(=O)/C(=C/c2cccs2)SC1=S)Nc1cccc(O)c1	.	/	.	/	28.2µM	/
COc1ccc(S(=O)(=O)NCC(c2cccs2)S(=O)(=O)c2ccc(C)cc2)cc1F (stereo not drawn)	.	/	/	/	.	?
Cc1cc(C)c(C(=O)CSc2nnc(N)s2)c(C)c1	.	.	.	.	25.1µM	/
Cc1cc(C)c(C(=O)CSc2nnc(C)s2)c(C)c1	.	?	.	.	.	/
COCC(C)n1c(C)cc(C(=O)CSc2nnc(N)s2)c1C (stereo not drawn)	.	.	.	.	6.31µM	.
Cc1cc(C(=O)CSc2nnc(N)s2)c(C)n1C1CC1	/	/	/	/	50.1µM	/
COc1cc(NC(=O)Cn2cc(C(=O)c3ccc(F)cc3)c(=O)c3ccc(C)nc32)cc(OC)c1	.	/	/	/	.	.
COCCCCCCCCCCCC(=O)O	/	.	.	.	.	/
Cc1ccc(S(=O)(=O)N(CC(=O)N2CCC(C(N)=O)CC2)c2cccc(C(F)(F)F)c2)cc1	.	12.6µM	.	.	.[12.7 µM]	.
Cc1ccc(S(=O)(=O)Nc2cc(=O)[nH]c(SCC(=O)Nc3ccccc3Cl)n2)cc1	.	.	.	.	56.2µM	?
O=C(CSc1nc(NS(=O)(=O)c2ccccc2)cc(=O)[nH]1)Nc1ccccc1Cl	.	/	.	/	.	/
Cc1cc(C)nc(NS(=O)(=O)c2ccc(NC(=O)CSc3nc(-c4ccccc4)c(C#N)c(=O)[nH]3)cc2)n1	.	?	.	.	79.4µM	.[9.22 µM]
C=C(C)CN(CC)C(=O)CSc1nc2ncc(Cl)cc2[nH]1	.	25.1µM	.	.	.	.
O=C(CSc1nc2ncc(Cl)cc2[nH]1)Nc1cccc(F)c1	.	/	.	/	50.1µM	/
Cc1cc(C)cc(C(=O)N(Cc2nc(-c3ccc(Cl)cc3)no2)C(C)C)c1	.	/	/	/	.	/
SMILES	miR-21 reporter	ALDH1A1 block	Sfp inh	KDM4E inh	G9a inh	Lamin A splicing
CCCc1ccc(OCC(=O)Nc2sc3c(c2C(=O)OC)CCCCC3)cc1	.	/	/	/	?	/
Cc1cc(C)n(-c2ccccc2C#N)n1	.	/	.	?	.	/
Cc1cc(C)nc(NS(=O)(=O)c2ccc(NC(=O)CSc3nc4ccccc4[nH]3)cc2)n1	.	20µM	.	.	?	.
Nc1ncnc2nc(SCC(=O)Nc3cccc(C(F)(F)F)c3)[nH]c12	.	/	.	/	35.5µM	/
Cc1cc(NS(=O)(=O)c2ccc(NC(=O)CSc3nc4ncc(Cl)cc4[nH]3)cc2)nc(C)n1	.	/	.	.	44.7µM	/
Cc1cc(NS(=O)(=O)c2ccc(NC(=O)CSc3nc4ncc(Br)cc4[nH]3)cc2)nc(C)n1	.	/	.	.	?	/
CO/N=C1\CN(c2nc3c(cc2F)c(=O)c(C(=O)O)cn3C2CC2)CC1CN (stereo not drawn)	/	.	.	?	.[2.33 µM]	?
COc1ccc(C2=C(SC)CC2=NC(C)(C)C)cc1	.	17.8µM	.	?	?	.
CCc1ccc(CCC(=O)Nc2sc3c(c2C#N)CCCC3)o1	.	?	.	.	?	?
Cc1ccc(/C=C/C(=O)Nc2sc3c(c2C#N)CCCC3)o1	.	?	39.8µM	.	?	.
Cc1[nH]n(-c2ccc(F)cc2)c(=O)c1/C=N/c1sc2c(c1C#N)CCCC2	.	?	.	.	?	.
CN1CCN(/C=N/c2sc3c(c2C#N)CCCCC3)CC1	.	10µM	.	.	?	.
Cc1ccc(/C=N/c2sc3c(c2C#N)CCC3)s1	.	25.1µM	.	?	?	.
Cc1[nH]n(-c2cccc3ccccc23)c(=O)c1/C=N/c1sc2c(c1C#N)CCC2	.	5.01µM	79.4µM	?	?	.
CC(C)(C)c1ccc(C(=O)NCC(c2ccco2)S(=O)(=O)c2ccccc2)cc1 (stereo not drawn)	.	/	/	/	.	.
N#Cc1c(/N=C/C=C/c2ccccc2)sc2c1CCCC2	.	7.94µM	25.1µM	?	?	.
CCN(/C=N/c1sc2c(c1C#N)CCCCC2)CC	.	?	.	.	.	.
Cc1ccc(/C=N/c2sc3c(c2C#N)CCCCC3)o1	.	?	50.1µM	.	14.1µM	.
N#Cc1c(/N=C/c2cc3ccccc3s2)sc2c1CCC2	.	25.1µM	.	?	?	.
CCn1c(CN2CCC(C)CC2)nc2cc(NC(=O)COc3ccc([N+](=O)[O-])cc3)ccc21	.	/	/	/	.	?
N#Cc1ccccc1NC(=O)C(=O)NCCc1csc(-c2ccc(C(F)(F)F)cc2)n1	.	/	/	/	.	.
Cc1cccc(C2NC(=O)c3c(sc(C)c3C)N2)c1O (stereo not drawn)	.	?	89.1µM	.	.[12.7 µM]	.
Cc1ccc(C2NC(=O)c3c(sc(C)c3C)N2)c(O)c1 (stereo not drawn)	.	.	50.1µM	?	31.6µM	.
CCCNC(=O)c1ccc(-c2nc(CS(=O)(=O)c3ccc(C)cc3)c(C)o2)cc1	.	/	/	/	?	/
CCOc1ccccc1-n1nnnc1SCC(=O)NCC1(N2CCOCC2)CCCCC1	/	/	/	/	.[2.33 µM]	/
SMILES	miR-21 reporter	ALDH1A1 block	Sfp inh	KDM4E inh	G9a inh	Lamin A splicing
Cc1ccccc1OCc1nnc(SCC(=O)NC2CCCCC2)o1	.	/	.	/	50.1µM	/
CCOc1ccccc1-n1nnnc1SCC(=O)NC(=O)Cc1ccccc1	/	/	/	/	10µM	/
O=C(CSc1nnnn1-c1ccccc1)NC(=O)NCc1ccco1	.	?	.	.	.[12.7 µM]	.
COc1ccc(OCc2nnc(SCC(=O)NC3CCCCC3)o2)cc1	.	/	.	/	.	/
CCOc1ccccc1-n1nnnc1SCc1nc2ccccc2s1	.	10µM	.	.	.[12.7 µM]	.
CCOc1ccccc1-n1nnnc1SCC(=O)NC(=O)NCc1ccco1	.	?	.	.	79.4µM	.
